IC50 and EC50 data for five compounds are collected here from patent US9522888B2, “Substituted bicyclic compounds” (BRISTOL-MYERS SQUIBB COMPANY, priority 2014, dated 2016).

Sequences of proteins named here, by UniProt entry; tags and fusion partners are left off.
UniProt P21453, whole entry: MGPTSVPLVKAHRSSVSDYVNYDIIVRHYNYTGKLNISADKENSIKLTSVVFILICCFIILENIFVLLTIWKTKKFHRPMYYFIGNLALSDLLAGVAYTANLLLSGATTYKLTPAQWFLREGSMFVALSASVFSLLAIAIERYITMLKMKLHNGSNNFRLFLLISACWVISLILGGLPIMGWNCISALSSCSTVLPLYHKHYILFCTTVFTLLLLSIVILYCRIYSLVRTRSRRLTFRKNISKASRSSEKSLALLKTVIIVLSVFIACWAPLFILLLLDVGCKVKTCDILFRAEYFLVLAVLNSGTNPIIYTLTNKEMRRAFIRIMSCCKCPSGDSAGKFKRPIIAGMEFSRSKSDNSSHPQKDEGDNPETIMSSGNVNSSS

The first assay addresses human S1P1 (Homo sapiens (Human), UniProt P21453). The assay can be described thus: S1P1 binding assay (33P-S1P radioligand competition, CHO cell membranes). The note with it: 33P-S1P competition, membranes of CHO cells expressing human S1P1. As for the experimental part: Membranes were prepared from CHO cells expressing human S1P1. Cells pellets (1×10^9 cells/pellet) were suspended in buffer containing 20 mM HEPES (4-(2-hydroxyethyl)-1-piperazineethanesulfonic acid), pH 7.5, 50 mM NaCl, 2 mM EDTA (Ethylenediaminetetraacetic acid) and Protease Inhibitor cocktail (Roche), and disrupted on ice using the Polytron homogenizer. The homogenate was centrifuged at 20,000 rpm (48,000 g) and the supernatant was discarded. The membrane pellets were resuspended in buffer containing 50 mM HEPES, pH 7.5, 100 mM NaCl, 1 mM MgCl2, 2 mM EDTA and stored in aliquots at −80° C. after protein concentration determination.
The IC50 is defined as the concentration of competing ligand needed to reduce specific binding by 50%.
For `COc1cccc(OCC2CCc3cc([C@@H]4CC[C@](N)(COP(=O)(O)O)C4)ccc3C2)c1` (single isomer, unassigned) [Example 701], the IC50 was 0.0487 µM.

In turn, `COc1ccccc1CC[C@@H]1CCc2cc([C@@H]3CC[C@](N)(COP(=O)(O)O)C3)ccc2C1` [Example 699] had an IC50 of 0.183 µM.

`COc1ccccc1CCC1CCc2cc(C3CC[C@](N)(COP(=O)(O)O)C3)ccc2C1` (single isomer, unassigned) [Example 698] had an IC50 of 0.0694 µM.

Take `COc1cccc(OCC2CCc3cc([C@@H]4CC[C@](N)(COP(=O)(O)O)C4)ccc3C2)c1` (single isomer, unassigned) [Example 702]: the IC50 was 0.151 µM.

The target of another assay is S1P1 (membranes prepared from S1P1/CHO cells) (Homo sapiens (Human), UniProt P21453). Description: Receptor [35S] GTPγS binding assay (S1P1 GTPγS). It counts as biochemical. The note with it: S1P1/CHO cell membranes. On the procedure: Receptor [^35S] GTPγS Binding Assays: (S1P1 GTPγS/S1P3 GTPγS)
Compounds were loaded in a 384 Falcon v-bottom plate (0.5 μl/well in a 11 point, 3-fold dilution). Membranes prepared from S1P1/CHO cells or EDG3-Gal5-bla HEK293T cells (EDG3 equivalent S1P3) were added to the compound plate (40 μl/well, final protein 3 μg/well) with MULTIDROP®. [^35S] GTP (1250 Ci/mmol, Perkin Elmer) was diluted in assay buffer: 20 mM HEPES, pH7.5, 10 mM MgCl2, 150 mM NaCl, 1 mM EGTA (ethylene glycol tetraacetic acid), 1 mM DTT (Dithiothreitol), 10 μM GDP, 0.1% fatty acid free BSA, and 10 μg/ml Saponin to 0.4 nM. 40 μl of the [^35S] GTP solution was added to the compound plate with a final concentration of 0.2 nM. The reaction was kept at room temperature for 45 min. At the end of incubation, all the mixtures in the compound plate were transferred to Millipore 384-well FB filter plates via the VELOCITY11® Vprep liquid handler. The filter plate was washed with water 4 times by using the manifold Embla plate washer and dried at 60° C. for 45 min. MicroScint 20 scintillation fluid (30 μl) was added to each well for counting on the Packard TOPCOUNT®. EC50 is defined as the agonist concentration that corresponds to 50% of the Ymax (maximal response) obtained for each individual compound tested. […]
For the compound `COc1ccccc1CC[C@@H]1CCc2cc([C@H]3CC[C@](N)(COP(=O)(O)O)C3)ccc2C1` (single isomer, unassigned) [Example 697], the EC50 came to 0.0006 µM. This lies in the sub-nanomolar range.

`COc1cccc(OCC2CCc3cc([C@@H]4CC[C@](N)(COP(=O)(O)O)C4)ccc3C2)c1` (single isomer, unassigned) [Example 702] yielded an EC50 of 0.12 µM.
